The experiment has as its target sucrase (Rattus norvegicus, UniProt P23739). Put plainly: In vitro sucrase inhibition (rat intestinal mucosa α-glucosidase, glucose assay kit). The following applies: sucrose 50 mmol/L, 37 °C, 20 min.

Sequences of proteins named here, by UniProt entry; tags and fusion partners are left off. A change or cut given only in a name is not applied to a line headed by its entry.
UniProt P23739: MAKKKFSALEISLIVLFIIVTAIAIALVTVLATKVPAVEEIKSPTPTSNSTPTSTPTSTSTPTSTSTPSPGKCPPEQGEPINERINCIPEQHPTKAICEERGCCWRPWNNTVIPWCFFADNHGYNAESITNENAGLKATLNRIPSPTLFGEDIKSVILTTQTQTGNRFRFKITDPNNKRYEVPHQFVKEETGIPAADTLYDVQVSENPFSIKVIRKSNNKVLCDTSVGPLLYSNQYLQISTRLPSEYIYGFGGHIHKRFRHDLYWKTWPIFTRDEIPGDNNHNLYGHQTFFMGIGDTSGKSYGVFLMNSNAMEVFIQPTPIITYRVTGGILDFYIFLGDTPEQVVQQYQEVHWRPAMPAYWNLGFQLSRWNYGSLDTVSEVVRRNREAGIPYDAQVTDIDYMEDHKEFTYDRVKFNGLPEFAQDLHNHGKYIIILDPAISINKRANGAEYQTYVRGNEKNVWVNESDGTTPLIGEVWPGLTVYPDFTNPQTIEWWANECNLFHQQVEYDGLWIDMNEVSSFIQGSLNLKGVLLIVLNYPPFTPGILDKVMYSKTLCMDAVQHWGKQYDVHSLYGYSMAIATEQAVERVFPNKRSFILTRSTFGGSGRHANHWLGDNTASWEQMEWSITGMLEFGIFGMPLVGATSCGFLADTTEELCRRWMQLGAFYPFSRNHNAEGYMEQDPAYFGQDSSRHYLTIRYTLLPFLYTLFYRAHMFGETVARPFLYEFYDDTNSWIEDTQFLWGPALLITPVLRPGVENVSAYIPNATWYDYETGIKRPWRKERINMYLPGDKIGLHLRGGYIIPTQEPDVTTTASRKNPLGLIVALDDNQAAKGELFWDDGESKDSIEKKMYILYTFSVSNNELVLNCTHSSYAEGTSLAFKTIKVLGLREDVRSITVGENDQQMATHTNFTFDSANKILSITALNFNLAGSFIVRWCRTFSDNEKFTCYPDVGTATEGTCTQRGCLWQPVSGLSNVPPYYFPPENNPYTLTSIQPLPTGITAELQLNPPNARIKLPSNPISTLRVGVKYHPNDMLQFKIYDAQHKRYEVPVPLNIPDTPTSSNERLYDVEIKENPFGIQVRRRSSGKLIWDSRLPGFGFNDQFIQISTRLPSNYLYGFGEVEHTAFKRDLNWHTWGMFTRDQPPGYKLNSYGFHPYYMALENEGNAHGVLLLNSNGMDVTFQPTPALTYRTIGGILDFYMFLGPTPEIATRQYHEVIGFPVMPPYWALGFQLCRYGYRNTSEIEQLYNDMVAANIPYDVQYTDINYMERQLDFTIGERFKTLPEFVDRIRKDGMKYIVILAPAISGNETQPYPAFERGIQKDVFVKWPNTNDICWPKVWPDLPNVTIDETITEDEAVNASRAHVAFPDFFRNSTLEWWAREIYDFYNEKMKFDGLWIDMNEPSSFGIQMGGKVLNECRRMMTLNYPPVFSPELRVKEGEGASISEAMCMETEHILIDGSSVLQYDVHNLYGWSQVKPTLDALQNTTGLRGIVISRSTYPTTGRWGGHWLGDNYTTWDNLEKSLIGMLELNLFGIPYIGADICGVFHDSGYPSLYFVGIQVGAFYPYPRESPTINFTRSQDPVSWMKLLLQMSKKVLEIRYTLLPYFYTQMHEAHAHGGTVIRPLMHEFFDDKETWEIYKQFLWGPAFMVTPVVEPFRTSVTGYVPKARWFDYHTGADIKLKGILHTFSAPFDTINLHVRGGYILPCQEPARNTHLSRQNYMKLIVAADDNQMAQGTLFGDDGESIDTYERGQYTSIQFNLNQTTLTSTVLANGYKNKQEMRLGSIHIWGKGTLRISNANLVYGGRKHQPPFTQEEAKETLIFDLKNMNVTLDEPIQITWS

Turning to `C[C@H]1O[C@H](O[C@H]2[C@H](O)[C@@H](O)[C@@H](O[C@H]3[C@H](O)[C@@H](O)C(O)O[C@@H]3CO)O[C@@H]2CO)[C@H](O)[C@@H](O)[C@@H]1N[C@H]1C=C(CO)[C@@H](O)[C@H](O)[C@H]1O` (some centres unmarked) [acarbose, Acarbose], the half-inhibitory concentration (IC50) is, setting by setting: (IC50 against sucrase, Figure 4) 602 nM; (IC50 for sucrase inhibition, Figure 1) 647 nM.

In general, IC50 refers to the point on the concentration scale where inhibition reaches its midpoint. Lower therefore signals greater potency in that assay.

Values taken from PMC12388904, “Hypoglycemic Effects of Silphium perfoliatum L. In Vitro and In Vivo and Its Active Composition Identification by UPLC-Triple-TOF-MS/MS” (Pharmaceuticals, 2025).
